Values quoted from earlier work, collected in US10618982B2, “Process in water for the preparation of butyric esters of hyaluronic acid sodium salt” (priority 2015, dated 2020).

Settings: in vivo

Substance: N,N dimethylaminopyridine
- LD50: tens
